Target: NEK7 (UniProt Q8TDX7)
Experiment: FLAG-M2 bead co-IP, NEK7 blot
Conditions: reference: FLAG-NLRP3 wild type; sites S198

NLRP3 (from UniProt Q96P20) FLAG-NLRP3 S198A
binding against the reference: weaker
